Holding throughout (assay type): functional, cell-based
Assay [1] in a line: Cytotoxicity against human Caov3 cells after 72 hrs by MTT assay. As to conditions: caov-3. In short, it runs like this: (§1)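 Cells kept in RPMI-1640 with 10% FBS, 2 mM L-glutamine and gentamicin; seeded at 1×10⁴ cells/well, attached overnight at 37 °C, 5% CO₂. Compounds dissolved in DMSO, diluted into FBS-free medium, tested at […], 10⁻⁵, 10⁻⁶, 10⁻⁷ M in triplicate for 72 h. MTT (5 mg/ml) added for 3 h at 37 °C, formazan dissolved in DMSO, OD read at 590 nm; viability loss versus untreated controls, IC50 read graphically; melphalan as positive control.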

The test system of another assay is A549. In words: Cytotoxicity against human A549 cells after 72 hrs by MTT assay. Summed up: as §1
In general terms: Tetrazolium assays rely on reduction of a dye to a coloured formazan, in cell work by metabolically active cells.

The test system of another assay is SK-OV-3. In words: Cytotoxicity against human Scov3 cells after 72 hrs by MTT assay. Summed up:
as §1

In the case of `CP(=O)(Oc1ccccc1)N1C/C(=C\c2cccs2)C(=O)/C(=C/c2cccs2)C1` (stereo not drawn), the IC50 (as a rule, the point on the concentration scale where inhibition reaches its midpoint) in assay [1] stood at 10 µM; with A549, 4 µM; in the assay on SK-OV-3 it was 8 µM.

These data come from ChEMBL document CHEMBL1154820, “Synthesis, characterization and structure-activity relationship of novel N-phosphorylated E,E-3,5-bis(thienylidene)piperid-4-ones” (Eur J Med Chem, 2010).
